Two substances from article PMC6018403 (Frontiers in Pharmacology, 2018) can be followed below.

The data set in a line: Multi-component pharmacokinetic study of GQD, GQD-GC and single herb extracts in rats (plasma, LC/MS/MS). It counts as in vivo, Sprague-Dawley rats. The following applies: for AUClast / Cmax / T1/2 / Tmax: plasma; for plasma concentrations, effect of GQD compared with Gan-Cao: rats, oral. As to the method: Male Sprague-Dawley rats (220–250 g) were used for PK study, and the details were described in Supplemental Data. All procedures were in accordance with the National Institutes of Health Guide for the Care and Use of Laboratory Animals.
For PK study of GQD and its component herbs, rats were randomly divided into six groups (n = 10 for each group) before oral administration.
All blood samples were immediately centrifuged at 6,000 rpm (4°C) for 20 min to obtain plasma. The plasma samples were stored at −80°C.
A Finnigan TSQ Quantum triple quadrupole mass spectrometer was connected to a Surveyor HPLC via ESI interface (ThermoFisher). High purity nitrogen was used as the sheath and auxiliary gas; Ultra-high purity argon was used as the collision gas (1.5 mTorr). Q1 and Q3 quadrupoles were set at unit resolution. […] The column temperature was 40°C. The mobile phase consisted of acetonitrile containing 2% (v/v) methanol (A) and water containing 0.1% (v/v) formic acid (B). […] An aliquot of 5 μL was injected for analysis. UV spectra were obtained by scanning from 200 to 400 nm. The mass spectrometer was operated in the (+)-ESI mode. The optimized parameters were as follows: sheath gas (N2), 50 arb; auxiliary gas (N2), 5 arb; spray voltage, 4.0 kV; capillary temperature, 330°C; collision energy, see Table S1. Analytes were detected in the selected reaction monitoring (SRM) mode. Data were processed by Xcalibur 2.0.7 software (ThermoFisher).
LC/MS/MS calibration and quantitation data were processed with Xcalibur 2.0.7 software (ThermoFisher). The maximal plasma concentrations (Cmax) and their time of occurrence (Tmax) were obtained directly from the measured data. Other pharmacokinetic parameters were calculated by non-compartment or compartment models using WinNonlin® software (v6.1, Pharsight). Unless otherwise stated, results were expressed as the mean ± SD. Statistical significance in differences of the means was determined by Student's t–test, with a significance level of P < 0.05.
Herbal materials and extracts.
The four component herbs, Puerariae Lobatae Radix (Ge-Gen, GG), Scutellariae Radix (Huang-Qin, HQ), Coptidis Rhizoma (Huang-Lian, HL), and Glycyrrhizae Radix et Rhizoma Praeparata cum Melle (Gan-Cao, GC) were purchased from Tianheng Pharmacy. GQD was prepared by decocting the four component herbs […]
pre-extraction of Ge-Gen using 200 mL of water for 0.5 h. The decoctions were combined, filtered, and concentrated in vacuum at 50 °C. GQD-GC was prepared using the same procedure, except that Gan-Cao was removed from the formula. Final concentration of the GQD-GC extract was equivalent to 1.0 g of the crude drugs per mL. For single herb extracts, the herbs were decocted in 8-fold volume of water for […]
Final concentrations of the extracts were 1.0 g/mL for Ge-Gen, and 0.5 g/mL for Huang-Qin, Huang-Lian and […]
For pharmacokinetic study, Male Sprague-Dawley rats (220-250 g) were obtained from the Laboratory Animal Center of Peking University Health Science Center. The […]
The rats had free access to tap water and soy-free custom diet (Ke’ao Xieli Co.). All procedures were in accordance with the National Institutes of Health Guide for the Care and Use of Laboratory Animals […]
Experimental details for the PK study
1. Preparation of internal standard solution, calibration standard solutions, and quality control solutions […]
internal standard solution. Reference standard compounds were dissolved in the internal standard solution to prepare individual stock solutions (1.0 mg/mL). These […]
each compound. The standard solution was then serially diluted to obtain calibration […]
Quality control stock solutions were prepared at three concentration levels as high QC (HQC), middle QC (MQC), and low QC (LQC), based on linear ranges of the analytes.
2.1. Sample preparation for pharmacokinetic study
The calibration standard and quality control solutions for pharmacokinetic study were […]

The mark [1] stands for this setting: GC (Gan-Cao) group: rats, oral extract 2.36 g/kg.
The mark [2] stands for this setting: GQD group: rats, oral GQD extract 18.9 g/kg.

Regarding liquiritin apioside [Compound 33], the “plasma concentrations, effect of GQD compared with Gan-Cao” value is “improved”. For the same substance, under setting [1], the AUClast is 278.49 ± 1.41 ng·h/mL, the peak concentration (Cmax) was determined as 13.53 ± 0.78 ng/mL, the T1/2 is recorded as 13.11 ± 6.66 h and the Tmax came out at 1.59 ± 0.09 h. This substance registered an AUClast (GQD group: rats, oral GQD 18.9 g/kg (1.5-fold of clinical dosage)) of over 300 ng·h/mL. Under setting [2], the AUClast came out at 514.13 ± 7.53 ng·h/mL, the Cmax came to 12.6 ± 0.14 ng/mL, the T1/2 amounted to 15.43 ± 2.23 h and the time to peak (Tmax) was determined as 2.09 ± 0.24 h.

Turning to isoliquiritin apioside [Compound 34], the “plasma concentrations, effect of GQD compared with Gan-Cao” value is “improved”. Under setting [1], the AUClast was found to be 32.49 ± 5.6 ng·h/mL, the Cmax was determined as 2.67 ± 1.33 ng/mL, the T1/2 was found to be 6.05 ± 0.89 h and the Tmax is given as 2.89 ± 0.76 h. Further, under setting [2], the AUClast amounted to 40.83 ± 10.23 ng·h/mL, the Cmax is 3.28 ± 1.23 ng/mL, the T1/2 is 5.35 ± 1.41 h and the Tmax was 3.68 ± 8.09 h.
